Compound activity deposited in PubChem by Broad Institute.
Rows were chosen to be rich in hits. Some 1.9% of all compounds tested hit in one or more screens of this group.
ERp5 inh: inhibitors of ERp5-driven insulin aggregation, primary screen, biochemical, turbidity, absorbance 650 nm, single point; hit rate 0.05% among 350,000; inhibition, % at 9.99 µM; Protein disulfide-isomerase A6 (Homo sapiens), Q15084; 90 min; AID 651711, 2012;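 active means mean replicate inhibition above about 25%, with every replicate also reaching it, limit read from the data, passing the limit was not always enough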
ARNT TACC3 PPI: disruptors of ARNT/TACC3 protein interaction, primary screen, biochemical, AlphaScreen, single concentration | Transforming acidic coiled-coil-containing protein 3 (Homo sapiens), Q9Y6A5 | AlphaScreen His-ARNT PAS-B/GST-TACC3 binding, luminescence; TACC3 fragment carries E629A point mutation | inhibition, % at 9.99 µM | hit rate 0.66% among 390,000;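 active means mean inhibition of replicates at least 50% and at least half of replicates each reaching 50%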;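 further: 0% = complete ARNT plus TACC3 wells and 100% = ARNT alone without TACC3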
PglD DTNB: C. jejuni PglD acetyltransferase inhibitors, primary screen, biochemical, DTNB colorimetric, single point; UDP-N-acetylbacillosamine N-acetyltransferase PglD (Campylobacter jejuni); purified PglD enzyme, DTNB colorimetric CoA detection; inhibition, % at 12.5 µM; hit rate 0.098% among 360,000; in the data active means inhibition above about 16%, passing the limit was not always enough
FGF22 binding: binders of human FGF22 protein, primary screen, FGF22 synaptogenesis inhibitor project, biophysical, thermal shift, single point. Fibroblast growth factor 22 (Homo sapiens), Q9HCT0. hit rate 1.5% among 340,000. recombinant FGF22 thermal shift, SYPRO orange fluorescence; percent of sucrose octasulfate shift, DMSO zero. activity (Tm shift, normalised), % at 9.99 µM. AID 651658, 2012;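 active means mean Tm shift, scaled 0 neutral to 100 positive control, at about 1.3% or above, every replicate too, limit read from the data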
Yeast UUG start: alters start codon recognition fidelity in yeast. S. cerevisiae UUG-firefly luciferase reporter, luminescence/redox ratio. AID 602363. activity score, % at 18.7 µM. hit rate 0.13% among 350,000;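 active = replicate mean at a twofold rise or more, about +100% in these data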;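 note: firefly luciferase made from a UUG start codon reports start codon fidelity; reporter light over untreated wells divided by growth signal over untreated wells; some hits fall short of that in this replicate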
PDI turbidity: inhibitors of human PDI, primary screen, biochemical, turbidity, single point, plate reader | Protein disulfide-isomerase (Homo sapiens), P07237 | PDI insulin aggregation turbidity, A650, 90 min | inhibition, % at 10 µM | hit rate 0.052% among 350,000 | AID 588391, 2011;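 active means mean inhibition across replicates of 30% or more, whatever share of single replicates reach that level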
Active calls of the source: *; . = not tested or not shown.

Order of values: ERp5 inh	ARNT TACC3 PPI	PglD DTNB	FGF22 binding	Yeast UUG start	PDI turbidity
#1 COc1cc(/C=N/Nc2nncn2/N=C/c2ccc(O)c(OC)c2)ccc1O
    -6	51*	.	.	.	3
#2 COC(=O)C[C@@H]1CC[C@H]2[C@@H](COc3ccc(NC(=O)c4cscn4)cc3C(=O)N2C)O1
    7	0	-4	0	-4	.
#3 C/C(=N\NC(=O)CC#N)c1cc2ccccc2oc1=O
    .	21*	.	.	.	0
#4 C[C@H](CO)N1C[C@H](C)[C@@H](CN(C)Cc2cccc(F)c2)Oc2ncc(C#C[C@@H](C)O)cc2C1=O
    5	-4	1	0	24	.
#5 CO[C@H]1CN(C)C(=O)c2cc(NC(=O)C3CC3)ccc2OC[C@H](C)N(C(=O)c2cccnc2)C[C@H]1C
    -7	-5	4	0	.	.
#6 O=C(Nc1ccc(Cl)c(Cl)c1)N[C@H]1CC[C@H](CCn2cc(C3CCCC3)nn2)O[C@@H]1CO
    -1	.	.	1	.	.
#7 COc1cccc(-c2cccc(-c3nc(C(=O)O)cc4c3[C@@H](CCO)N(S(=O)C(C)(C)C)C4)c2)c1 (stereo not given in full)
    2	43*	0	0	.	.
#8 Cc1[nH]n(-c2ccccc2)c(=O)c1/C=N/NC(=O)c1cccc([N+](=O)[O-])c1
    .	31*	6	.	-20	-4
#9 Cc1[nH]n(-c2ccccc2)c(=O)c1/C=N/NC(=O)C(C)C
    2	70*	4	43	-33	-6
#10 Cc1[nH]n(-c2ccccc2)c(=O)c1/C=N\NC(=O)C1COc2ccccc2O1 (stereo not given)
    .	61*	.	.	.	10
#11 Cc1cc(/C=N/NC(=O)c2ccccn2)c(C)n1-c1cccc([N+](=O)[O-])c1
    -4	68*	.	43	.	0
#12 C[C@@H]1CN([C@H](C)CO)C(=O)c2cc(NC(=O)Nc3ccccc3)ccc2O[C@@H](C)CCCCO[C@@H]1CN(C)Cc1ccc(Cl)c(Cl)c1
    -6	-1	-3	-1	6	.
#13 C[C@H]1CN([C@@H](C)CO)C(=O)c2cc(NC(=O)Cc3cn(C)c4ccccc34)ccc2O[C@H]1CN(C)Cc1ccc(C(=O)Nc2ccccc2N)cc1
    -5	-1	-5	-1	6	.
#14 O=C(/C=C/c1c(F)cccc1Cl)c1ccc(O)cc1
    -1	1	.	41	.	79*
#15 C[C@@H]1CN([C@H](C)CO)S(=O)(=O)c2ccc(C#CC3CC3)cc2O[C@H]1CN(C)C
    2	1	4	0	-8	.

Entries listed so far that have a halogen (4):
Order of values: ERp5 inh	ARNT TACC3 PPI	PglD DTNB	FGF22 binding	Yeast UUG start	PDI turbidity
#4 C[C@H](CO)N1C[C@H](C)[C@@H](CN(C)Cc2cccc(F)c2)Oc2ncc(C#C[C@@H](C)O)cc2C1=O
    5	-4	1	0	24	.
#6 O=C(Nc1ccc(Cl)c(Cl)c1)N[C@H]1CC[C@H](CCn2cc(C3CCCC3)nn2)O[C@@H]1CO
    -1	.	.	1	.	.
#12 C[C@@H]1CN([C@H](C)CO)C(=O)c2cc(NC(=O)Nc3ccccc3)ccc2O[C@@H](C)CCCCO[C@@H]1CN(C)Cc1ccc(Cl)c(Cl)c1
    -6	-1	-3	-1	6	.
#14 O=C(/C=C/c1c(F)cccc1Cl)c1ccc(O)cc1
    -1	1	.	41	.	79*

Next structures:
Order of values: ERp5 inh	ARNT TACC3 PPI	PglD DTNB	FGF22 binding	Yeast UUG start	PDI turbidity
#16 NC1=NC(=O)/C(=C/c2cccc(F)c2)S1
    1	3	-4	0	-11	-5
#17 CC(=O)Nc1ccc(S(=O)(=O)Oc2cccc(/C=C3\SC(N)=NC3=O)c2)cc1
    -3	-5	.	43*	.	2
#18 O=S(=O)(N[C@H]1CC[C@H](CCNS(=O)(=O)c2ccccc2Cl)O[C@H]1CO)c1ccccc1
    4	-12	0	0	2	.
#19 CCc1c(C)[nH]c(C(=O)OCc2ccccc2)c1C
    -2	3	2	43*	-9	10
#20 CCc1c(C(=O)OCc2ccccc2)[nH]c(C)c1C
    .	2	.	0	.	2
#21 C[C@H]1CN([C@@H](C)CO)S(=O)(=O)c2ccc(-c3ccncc3)cc2O[C@H]1CN(C)C(=O)CC1CC1
    1	-9	5	1	-7	.
#22 C[C@H](CO)N1C[C@H](C)[C@@H](CN(C)Cc2ccccn2)Oc2cc(C#C[C@@H](C)O)ccc2S1(=O)=O
    -4	6	0	0	-10	.
#23 COCC(=O)NC[C@@H]1N[C@@H](CO)[C@H]1c1ccc(-c2ccccc2F)cc1
    -1	4	-2	-1	-4	.
#24 O=C(CN1C(=O)C(=O)c2ccccc21)OCN1C(=O)c2ccccc2C1=O
    17	-5	3	43*	-5	-1
#25 O=C(O)C1C(c2ccccc2)=C1c1ccc(Br)cc1 (stereo not given)
    1	.	.	43*	.	-2
#26 O=C(OCC(=O)c1c[nH]c2ccccc12)c1cc(Br)ccc1O
    2	-5	.	43*	.	-1
#27 CC(C)NC(=O)N1[C@H](CO)[C@H](c2ccccc2)C12CN(C(=O)CN(C)C)C2
    -1	.	.	0	.	.
#28 COc1ccc2c3c([nH]c2c1)[C@@H](CO)N(C(=O)NC(C)C)CC31CCN(C(=O)c2cccnc2)CC1
    -8	.	.	0	.	.
#29 COc1ccc(Cc2nnc(SCC(=O)NC3(C#N)CCCCC3)n2N)cc1
    25*	-5	4	0	-14	9
#30 COC(=O)CN1C(=O)N/C(=C/c2ccc(OC)cc2)C1=O
    -5	-6	.	43*	.	-4

Next structures follow.
Order of values: ERp5 inh	ARNT TACC3 PPI	PglD DTNB	FGF22 binding	Yeast UUG start	PDI turbidity
#31 COC(=O)[C@@H]1CCCN1C(=O)CCc1nnc(CCC2CCCCC2)o1
    4	.	.	43*	.	1
#32 O=C(NCC1(N2CCCCC2)CCCCC1)c1ccc(NS(=O)(=O)c2ccccc2)cc1
    6	active	7	0	6	0
#33 Cc1cccc(NS(=O)(=O)c2ccc(C(=O)NCC3(N4CCCCC4)CCCCC3)cc2)c1C
    -3	-10	4	0	1	-2
#34 C[C@@H]1CCCCO[C@H](CN(C)C(=O)Nc2ccc(F)cc2)[C@H](C)CN([C@@H](C)CO)C(=O)c2cc(NC(=O)CCC(F)(F)F)ccc2O1
    6	0	8	0	5	.
#35 CCc1cc2c(SCC#N)ncnc2s1
    -1	-18	.	43*	.	-5
#36 Cc1ccc(Cn2ncc3c(NN)ncnc32)cc1
    4	66*	0	0	-6	7
#37 Cc1noc(C)c1S(=O)(=O)Nc1ccc2c(c1)C(=O)N([C@@H](C)CO)C[C@@H](C)[C@@H](CN(C)C(=O)Nc1ccc3c(c1)OCO3)OCCCC[C@H](C)O2
    -6	8	0	0	7	.
#38 NC(=S)N/N=C/c1ccccc1OC(=O)c1cc2ccccc2oc1=O
    0	51*	1	0	-23	5
#39 NC(=S)N/N=C/c1ccccc1OC(=O)/C=C/c1ccccc1
    -11	34*	.	0	-41	9
#40 NC(=S)N/N=C\c1ccccc1OCc1ccccc1
    -4	-4	8	0	-18	-7
#41 C[C@@H]1CN([C@@H](C)CO)C(=O)Cc2cc(NS(=O)(=O)c3ccc(Cl)cc3)ccc2O[C@H]1CN(C)Cc1ccc(C(=O)O)cc1
    0	.	.	0	.	.
#42 C[C@@H]1CN([C@@H](C)CO)C(=O)c2cccc(NS(=O)(=O)c3ccc(F)cc3)c2O[C@H]1CN(C)S(=O)(=O)c1ccc(Cl)cc1
    -6	-8	1	0	16	.
